Values quoted from earlier work in patent publication US20200390909A1, “DRUG FRAGMENT IMAGING AGENT CONJUGATES” (The Board of Trustees of the Leland Stanford Junior …, priority 2018, published 2020).

Details: systemically administered, clinical optical contrast agent; cited from earlier work

Q: Which TBR does the source give for “IRdye800CW-labeled cetuximab: clinically-approved, systemically-administered optical contrast agent” here?
A: 5.2
